# Patent EP3952872B1, “CARBAMOYL CYCLOHEXANE DERIVATIVES FOR TREATING AUTISM SPECTRUM DISORDER” (Richter Gedeon Nyrt., priority 2019, dated 2020)
# Sequences of proteins named here, by UniProt entry; tags and fusion partners are left off.
# UniProt P35462, whole entry, species assumed: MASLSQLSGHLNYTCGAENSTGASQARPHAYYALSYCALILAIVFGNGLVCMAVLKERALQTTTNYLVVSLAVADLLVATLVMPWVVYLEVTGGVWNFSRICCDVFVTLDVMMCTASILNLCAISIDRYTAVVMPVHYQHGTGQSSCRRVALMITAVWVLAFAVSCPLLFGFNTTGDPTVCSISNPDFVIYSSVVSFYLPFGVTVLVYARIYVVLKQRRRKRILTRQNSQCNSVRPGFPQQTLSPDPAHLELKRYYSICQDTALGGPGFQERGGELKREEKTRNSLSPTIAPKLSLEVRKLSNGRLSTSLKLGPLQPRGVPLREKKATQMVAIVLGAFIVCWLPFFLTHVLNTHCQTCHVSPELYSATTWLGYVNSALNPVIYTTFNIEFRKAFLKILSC
# Target: dopamine D3 receptor (Homo sapiens, UniProt P35462)
# Conditions: Compound 2
smiles,measurement,value
"O=C(N[C@H]1CC[C@H](CCN2CCN(c3cccc(Cl)c3Cl)CC2)CC1)N1CCOCC1 [Compound 2, trans-N-(4-{2-[4-(2,3-dichloro-phenyl)-piperazine-1-yl]-ethyl}-cyclohexyl)-morpholine-4 carboxamide]",functional character at the dopamine D3 receptor,partial agonist
